# Data from ChEMBL document CHEMBL5608256, “Nicotinic Acid Derivatives As Novel Noncompetitive α-Amylase and α-Glucosidase Inhibitors for Type 2 Diabetes Treatment” (ACS Med Chem Lett, 2024).
# Sequences of proteins named here, by UniProt entry; tags and fusion partners are left off. A change or cut given only in a name is not applied to a line headed by its entry.
# UniProt P53341: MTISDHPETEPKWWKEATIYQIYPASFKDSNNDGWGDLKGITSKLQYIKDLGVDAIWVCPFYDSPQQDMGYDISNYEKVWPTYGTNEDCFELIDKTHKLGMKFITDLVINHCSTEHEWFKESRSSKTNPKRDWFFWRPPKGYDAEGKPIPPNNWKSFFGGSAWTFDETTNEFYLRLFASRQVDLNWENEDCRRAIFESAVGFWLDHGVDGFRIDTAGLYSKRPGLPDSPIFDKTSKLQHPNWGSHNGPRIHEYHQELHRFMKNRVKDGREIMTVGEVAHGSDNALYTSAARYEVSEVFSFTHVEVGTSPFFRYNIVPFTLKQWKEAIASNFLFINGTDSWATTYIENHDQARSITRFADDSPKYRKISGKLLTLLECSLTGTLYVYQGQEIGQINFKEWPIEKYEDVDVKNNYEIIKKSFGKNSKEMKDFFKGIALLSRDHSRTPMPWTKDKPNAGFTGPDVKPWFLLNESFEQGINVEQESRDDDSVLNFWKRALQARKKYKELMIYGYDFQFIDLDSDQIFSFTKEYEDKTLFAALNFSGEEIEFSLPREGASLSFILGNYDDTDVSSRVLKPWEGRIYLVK
# UniProt P38158: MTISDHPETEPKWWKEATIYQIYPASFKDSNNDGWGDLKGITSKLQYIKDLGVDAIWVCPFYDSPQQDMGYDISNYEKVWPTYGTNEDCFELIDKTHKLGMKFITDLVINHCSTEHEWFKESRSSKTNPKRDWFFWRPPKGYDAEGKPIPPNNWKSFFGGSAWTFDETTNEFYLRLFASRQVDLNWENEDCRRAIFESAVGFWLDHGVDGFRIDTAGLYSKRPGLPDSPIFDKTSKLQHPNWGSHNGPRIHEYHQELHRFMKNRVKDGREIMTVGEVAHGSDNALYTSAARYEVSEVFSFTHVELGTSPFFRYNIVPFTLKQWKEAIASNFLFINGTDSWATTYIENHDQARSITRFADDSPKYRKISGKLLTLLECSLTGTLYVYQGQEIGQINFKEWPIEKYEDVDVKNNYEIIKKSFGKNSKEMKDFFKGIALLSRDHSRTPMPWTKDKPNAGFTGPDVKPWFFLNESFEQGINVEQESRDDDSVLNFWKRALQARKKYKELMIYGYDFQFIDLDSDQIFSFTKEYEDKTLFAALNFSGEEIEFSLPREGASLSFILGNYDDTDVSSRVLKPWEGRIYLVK
# UniProt P07265: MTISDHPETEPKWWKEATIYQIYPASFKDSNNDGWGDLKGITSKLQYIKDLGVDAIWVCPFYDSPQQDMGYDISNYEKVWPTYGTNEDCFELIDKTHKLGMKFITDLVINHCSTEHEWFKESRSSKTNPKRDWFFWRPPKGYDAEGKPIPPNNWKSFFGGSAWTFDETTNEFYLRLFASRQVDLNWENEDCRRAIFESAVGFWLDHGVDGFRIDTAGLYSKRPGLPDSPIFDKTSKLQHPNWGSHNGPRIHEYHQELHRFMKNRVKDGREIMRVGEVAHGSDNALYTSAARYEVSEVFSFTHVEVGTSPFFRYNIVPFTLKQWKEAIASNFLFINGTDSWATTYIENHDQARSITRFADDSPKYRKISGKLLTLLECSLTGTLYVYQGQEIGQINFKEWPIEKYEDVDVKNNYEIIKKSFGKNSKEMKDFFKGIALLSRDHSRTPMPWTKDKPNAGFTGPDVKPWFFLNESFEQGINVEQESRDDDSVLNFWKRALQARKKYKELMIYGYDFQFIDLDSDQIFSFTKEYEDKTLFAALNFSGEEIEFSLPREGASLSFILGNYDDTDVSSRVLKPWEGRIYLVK
# Target: Alpha-glucosidase (Saccharomyces cerevisiae S288c, UniProt P53341+P38158+P07265)
# Test: Inhibition of Saccharomyces cerevisiae alpha-glucosidase using p-nitrophenyl-alpha-D-glucopyranoside as substrate preincubated with substrate for 5 mins followed by enzyme addition and measured after 15 mins
# Assay type: protein assay
compound,measurement,value
OCC(CO)N[C@H]1C[C@](O)(CO)[C@@H](O)[C@H](O)[C@H]1O [VOGLIBOSE],IC50,14.7 µM
